The source of these data is ChEMBL document CHEMBL1131442, “Novel analogues of arachidonylethanolamide (anandamide): affinities for the CB1 and CB2 cannabinoid receptors and metabolic stability” (J Med Chem, 1998).

The chains behind the UniProt entries cited, without tags or fusion partners.
UniProt P20272, whole entry: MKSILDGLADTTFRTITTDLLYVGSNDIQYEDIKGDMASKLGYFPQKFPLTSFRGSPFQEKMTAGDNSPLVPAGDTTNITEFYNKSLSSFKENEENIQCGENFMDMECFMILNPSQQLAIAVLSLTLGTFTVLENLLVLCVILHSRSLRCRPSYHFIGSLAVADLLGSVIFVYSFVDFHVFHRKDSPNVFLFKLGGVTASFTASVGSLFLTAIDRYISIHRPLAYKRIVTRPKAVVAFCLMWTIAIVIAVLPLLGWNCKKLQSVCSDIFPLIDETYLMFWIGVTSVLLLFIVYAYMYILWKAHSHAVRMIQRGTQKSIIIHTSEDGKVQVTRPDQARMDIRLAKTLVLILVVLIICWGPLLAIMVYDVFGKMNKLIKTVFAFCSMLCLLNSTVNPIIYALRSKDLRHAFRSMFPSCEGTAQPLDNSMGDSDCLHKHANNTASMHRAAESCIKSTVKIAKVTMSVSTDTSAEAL

Assay [1] concerns the target T1, Cannabinoid receptor 1 (Rattus norvegicus, UniProt P20272). Nature of the assay: Binding affinity towards cannabinoid receptor 1 from rat forebrain membranes in the presence of phenylmethanesulfonylfluoride (PMSF) using 0.8 nM [3H]CP-55940 as radioligand. The arrangement: species or system Membrane. Put shortly: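 Rat forebrain membranes were pretreated at 4 °C with 150 μM PMSF in TME for 15 min, brought to 300 μM for another 15 min, then washed three times. Binding used ~30 μg membrane in TME with 0.1% BSA, 0.8 nM [3H]CP-55,940 and varied analogue concentrations, 1 h. Filtration on GF/C was followed by scintillation counting. IC50 came from ≥2 experiments in duplicate, with Ki by Cheng–Prusoff.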

The target in assay [2] is T1, Cannabinoid receptor 1. Nature of the assay: Binding affinity towards cannabinoid receptor 1 from rat forebrain membranes in the absence of phenylmethanesulfonylfluoride (PMSF) using 0.8 nM [3H]CP-55940 as radioligand. Details: species or system Membrane. The procedure, abridged: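 Rat forebrain membranes were used without PMSF treatment. Incubation was with [3H]CP-55,940 (0.8 nM) and varied analogue concentrations in TME with 0.1% fatty acid-free BSA. Bound ligand was separated by filtration and counted by scintillation. IC50 from nonlinear regression was converted to Ki by Cheng–Prusoff.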

For orientation: pKi means the negative decadic logarithm of the Ki, by convention in mol/L.

pKi: −log10 of the molar value.

On to `CCCCCCCC/C=C\CCCCCCCC(=O)NCCO` [OLEOYLETHANOLAMIDE], for which, on Cannabinoid receptor 1 [1], the negative-log Ki (pKi) is 4.70.

At Cannabinoid receptor 1 [2], `CCCCC/C=C\C/C=C\CCCCCCCC1=NCCO1` gave a pKi of 5.09.

Regarding `CCCCC/C=C\C/C=C\CCCCCCCC(=O)NCCO` [LINOLEOYLETHANOLAMIDE], the pKi on Cannabinoid receptor 1 [2] was 4.40; on Cannabinoid receptor 1 [1], 5.00.

For `CCCCC/C=C\C/C=C\C/C=C\C/C=C\CCCC(=O)N[C@@H](C)CO`, the pKi at Cannabinoid receptor 1 [2] was 6.23; on Cannabinoid receptor 1 [1], 6.51.

Consider `CCCCC/C=C\C/C=C\C/C=C\C/C=C\CCCC(=O)NCCO` [ANANDAMIDE], for which the pKi was 5.24 on Cannabinoid receptor 1 [2] and 7.21 on Cannabinoid receptor 1 [1].

As for `CCCCC/C=C\C/C=C\C/C=C\C/C=C\CCCC(=O)N[C@H](C)CO` [METHANANDAMIDE], the pKi was 7.55 on Cannabinoid receptor 1 [2] and 7.75 at Cannabinoid receptor 1 [1].
